From US7214686B2, “Pharmaceutical compositions and methods for effecting dopamine release” (priority 1997, dated 2007)

By UniProt entry, the sequences of proteins in these tests, tags left out. Residues count along the entry.
UniProt P02708, 21-457: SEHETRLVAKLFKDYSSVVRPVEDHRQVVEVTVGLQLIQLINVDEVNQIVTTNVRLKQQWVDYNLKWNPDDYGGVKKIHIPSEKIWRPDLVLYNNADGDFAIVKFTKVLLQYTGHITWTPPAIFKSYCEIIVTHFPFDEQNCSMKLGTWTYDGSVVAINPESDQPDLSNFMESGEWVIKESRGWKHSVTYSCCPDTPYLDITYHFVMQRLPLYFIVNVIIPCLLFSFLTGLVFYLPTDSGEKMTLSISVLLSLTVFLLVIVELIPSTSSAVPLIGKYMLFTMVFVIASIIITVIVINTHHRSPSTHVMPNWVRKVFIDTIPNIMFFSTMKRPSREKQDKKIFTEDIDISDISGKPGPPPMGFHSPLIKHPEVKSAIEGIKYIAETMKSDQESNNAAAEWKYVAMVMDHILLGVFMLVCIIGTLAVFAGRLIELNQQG
UniProt P07510, 23-517: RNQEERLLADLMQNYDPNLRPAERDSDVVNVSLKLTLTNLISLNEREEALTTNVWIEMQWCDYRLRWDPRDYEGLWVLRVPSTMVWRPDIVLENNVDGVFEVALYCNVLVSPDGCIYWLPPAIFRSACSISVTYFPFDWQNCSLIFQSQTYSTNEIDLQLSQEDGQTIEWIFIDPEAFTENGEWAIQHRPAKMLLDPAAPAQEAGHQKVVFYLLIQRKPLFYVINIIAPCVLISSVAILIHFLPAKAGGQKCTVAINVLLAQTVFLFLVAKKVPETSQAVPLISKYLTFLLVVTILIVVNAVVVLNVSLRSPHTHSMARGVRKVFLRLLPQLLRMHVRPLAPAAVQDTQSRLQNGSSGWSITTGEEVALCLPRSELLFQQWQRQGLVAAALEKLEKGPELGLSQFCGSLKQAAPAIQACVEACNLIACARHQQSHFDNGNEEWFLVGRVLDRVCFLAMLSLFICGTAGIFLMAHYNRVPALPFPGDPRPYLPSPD
UniProt Q07001, 22-517: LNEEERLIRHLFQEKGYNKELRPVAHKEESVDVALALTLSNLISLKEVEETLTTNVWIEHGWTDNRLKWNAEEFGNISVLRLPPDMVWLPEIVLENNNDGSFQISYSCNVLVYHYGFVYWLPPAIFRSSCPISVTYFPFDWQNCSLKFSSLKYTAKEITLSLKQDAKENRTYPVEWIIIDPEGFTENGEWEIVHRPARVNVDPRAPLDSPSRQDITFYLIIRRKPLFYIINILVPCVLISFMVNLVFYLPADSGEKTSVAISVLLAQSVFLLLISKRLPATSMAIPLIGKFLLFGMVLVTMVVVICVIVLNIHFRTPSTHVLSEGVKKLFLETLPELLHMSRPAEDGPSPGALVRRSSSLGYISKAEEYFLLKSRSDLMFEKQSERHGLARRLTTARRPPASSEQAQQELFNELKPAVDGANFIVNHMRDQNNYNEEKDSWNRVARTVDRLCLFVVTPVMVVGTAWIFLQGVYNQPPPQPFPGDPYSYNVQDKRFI
UniProt P04757, 26-499: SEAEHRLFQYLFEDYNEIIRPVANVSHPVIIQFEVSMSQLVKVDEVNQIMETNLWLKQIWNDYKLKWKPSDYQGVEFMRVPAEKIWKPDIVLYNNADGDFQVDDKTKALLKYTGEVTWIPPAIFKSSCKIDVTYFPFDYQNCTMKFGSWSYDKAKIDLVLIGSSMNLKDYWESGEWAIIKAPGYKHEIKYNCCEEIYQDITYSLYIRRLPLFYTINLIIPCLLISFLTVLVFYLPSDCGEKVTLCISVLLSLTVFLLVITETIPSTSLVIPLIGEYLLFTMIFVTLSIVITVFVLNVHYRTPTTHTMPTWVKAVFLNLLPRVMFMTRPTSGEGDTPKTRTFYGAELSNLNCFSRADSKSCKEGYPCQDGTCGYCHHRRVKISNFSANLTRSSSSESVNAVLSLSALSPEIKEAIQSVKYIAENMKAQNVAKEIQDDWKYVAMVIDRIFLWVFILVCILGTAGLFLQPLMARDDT
UniProt P12392, 21-495: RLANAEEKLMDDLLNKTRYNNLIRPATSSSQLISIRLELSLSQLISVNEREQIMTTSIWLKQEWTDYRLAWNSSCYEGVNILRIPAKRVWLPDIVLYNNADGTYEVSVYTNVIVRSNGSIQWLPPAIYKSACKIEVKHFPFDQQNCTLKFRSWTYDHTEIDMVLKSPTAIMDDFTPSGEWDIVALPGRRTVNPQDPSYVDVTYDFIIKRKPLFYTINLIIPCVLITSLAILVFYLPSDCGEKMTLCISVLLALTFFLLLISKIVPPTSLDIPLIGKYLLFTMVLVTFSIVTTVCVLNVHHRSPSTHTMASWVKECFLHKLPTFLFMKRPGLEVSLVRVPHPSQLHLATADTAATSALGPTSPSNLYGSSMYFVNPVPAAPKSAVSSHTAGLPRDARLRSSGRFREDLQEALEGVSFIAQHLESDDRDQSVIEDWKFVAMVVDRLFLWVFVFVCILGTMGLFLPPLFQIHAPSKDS
UniProt P09483, 31-630: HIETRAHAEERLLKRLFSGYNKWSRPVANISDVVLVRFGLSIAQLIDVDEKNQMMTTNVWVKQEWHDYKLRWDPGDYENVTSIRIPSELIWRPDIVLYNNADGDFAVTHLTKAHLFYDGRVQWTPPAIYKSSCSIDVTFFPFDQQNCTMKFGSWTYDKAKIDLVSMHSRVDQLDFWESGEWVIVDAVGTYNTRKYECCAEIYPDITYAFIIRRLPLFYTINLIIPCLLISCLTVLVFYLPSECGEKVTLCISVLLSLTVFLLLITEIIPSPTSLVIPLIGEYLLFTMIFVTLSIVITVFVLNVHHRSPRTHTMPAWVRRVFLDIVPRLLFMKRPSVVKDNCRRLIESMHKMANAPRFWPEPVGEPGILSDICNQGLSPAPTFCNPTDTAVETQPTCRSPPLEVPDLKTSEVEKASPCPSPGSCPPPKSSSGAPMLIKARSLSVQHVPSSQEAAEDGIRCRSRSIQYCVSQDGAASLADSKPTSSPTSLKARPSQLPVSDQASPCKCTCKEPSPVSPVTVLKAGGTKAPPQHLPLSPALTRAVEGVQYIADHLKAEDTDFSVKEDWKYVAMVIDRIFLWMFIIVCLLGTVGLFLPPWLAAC
UniProt P12390, 25-500: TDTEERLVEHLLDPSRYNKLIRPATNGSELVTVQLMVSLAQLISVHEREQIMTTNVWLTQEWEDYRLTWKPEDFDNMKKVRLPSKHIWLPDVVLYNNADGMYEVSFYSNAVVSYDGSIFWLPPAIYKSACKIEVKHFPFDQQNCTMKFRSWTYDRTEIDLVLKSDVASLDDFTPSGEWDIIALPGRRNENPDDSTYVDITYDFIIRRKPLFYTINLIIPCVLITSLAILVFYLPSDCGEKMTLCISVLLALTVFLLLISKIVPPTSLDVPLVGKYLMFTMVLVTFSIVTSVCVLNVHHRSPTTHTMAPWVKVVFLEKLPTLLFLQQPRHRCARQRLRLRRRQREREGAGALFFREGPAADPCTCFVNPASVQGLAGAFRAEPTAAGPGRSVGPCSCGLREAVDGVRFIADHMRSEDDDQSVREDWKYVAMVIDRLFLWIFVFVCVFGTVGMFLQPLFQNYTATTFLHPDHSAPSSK

Tests used:
[1] = molecular target: T1, human muscle nAChR subtype (TE671/RD cells) (Homo sapiens, UniProt P02708+P07510+Q07001); assay type: cell-based; details: for amounts causing muscle effects relative to those required to cause dopamine release: muscle effects vs dopamine release
T1 construct: These cells express receptors that have pharmacological; endogenous in cells; host or cells: TE671/RD (human embryonal rhabdomyosarcoma)
Protocol: (§1) Cells were cultured in Dulbecco's modified Eagle's medium (Gibco/BRL) with 10% horse serum (Gibco/BRL), 5% fetal bovine serum (HyClone, Logan Utah), 1 mM sodium pyruvate, 4 mM L-Glutamine, and 50,000 units penicillin-streptomycin (Irvine Scientific). When cells were 80% confluent, they were plated to 6 well polystyrene plates (Costar). Experiments were conducted when the cells reached 100% confluency.
(§2) On the day of the experiment, growth media was gently removed from the well and growth media containing ^86Rubidium chloride (10^6 μCi/mL) was added to each well. Cells were incubated at 37° C. for a minimum of 3 h. […] Next, cells were exposed to either 100 μM of test compound, 100 μM of L-nicotine (Acros Organics) or buffer alone for 4 min. Following the exposure period, the supernatant containing the released ^86Rb^+ was removed and transferred to scintillation vials. Scintillation fluid was added and released radioactivity was measured by liquid scintillation counting.
Within each assay, each point had 2 replicates, which were averaged. The amount of ^86Rb^+ release was compared to both a positive control (100 μM L-nicotine) and a negative control (buffer alone) to determine the percent release relative to that of L-nicotine.
(§3) When appropriate, dose-response curves of test compound were determined. The maximal activation for individual compounds (Emax) was determined as a percentage of the maximal activation induced by L-nicotine. The compound concentration resulting in half maximal activation (EC50) of specific ion flux was also determined.

[2] = molecular target: T2, rat ganglionic nAChR subtype (PC12 cells) (Rattus norvegicus, UniProt P04757+P12392); assay: cell-based; assay type: cell-based; details: for amounts causing effects upon ganglia relative to those required to cause dopamine release: ganglia effects vs dopamine release
T2 construct: These cells express ganglion-like nAChRs; endogenous in cells; host or cells: PC12 (rat pheochromocytoma)
Protocol: Activation of rat ganglion nAChRs was established on the pheochromocytoma clonal line PC12, which is a continuous clonal cell line of neural crest origin, derived from a tumor of the rat adrenal medulla.
as §1, with “Nunc” for “polystyrene”, “(Nunclon) and coated with 0.03% poly-L-lysine (Sigma, dissolved in 100 mM boric acid).” for “(Costar).”, “80%” for “100%”
as §2, with “nicotine” for “L-nicotine (Acros Organics)”
Within each assay, each point had 2 replicates, which were averaged. The amount of ^86Rb^+ release was compared to both a positive control (100 μM nicotine) and a negative control (buffer alone) to determine the percent release relative to that of L-nicotine.
as §3

[3] = molecular target: T3, α4β2 nAChR subtype (Rattus norvegicus, UniProt P09483+P12390); assay: biochemical; assay type: binding
T3 construct: The cerebral cortex was removed and placed in 20 volumes (weight:volume) of ice-old preparative buffer; from tissue; host or cells: rat cerebral cortex membranes

[4] = system: striatal synaptosomes (dopamine release); assay: cells; assay type: cell-based, rat

SMILES	amounts causing muscle effects relative to those required to cause dopamine release [1]	amounts causing effects upon ganglia relative to those required to cause dopamine release [2]	Ki [3] [nM]	Muscle Effect Ecmax [1]	Dopamine Release Ecmax [4]	EC50 ([4]; Rattus norvegicus, read-out: Dopamine Release EC50) [nM]	EC50 [2] [µM]
Brc1cncc(C2CC3CCN2CC3)c1 (racemic) [Sample No. 2, (+/−)-2-(5-bromo-3-pyridyl)-1-azabicyclo[2.2.2]octane]	many times	many times	1	–	–	–	–
c1cncc([C@H]2C[C@@H]3CCN2C3)c1 (relative stereo) [Sample No. 3, exo 2-(3-pyridyl)-1-azabicyclo[2.2.1]heptane]	–	–	0.5	–	–	–	–
c1cncc([C@@H]2C[C@@H]3CCN2C3)c1 (relative stereo) [Sample No. 4, endo-2-(3-pyridyl)-1-azabicyclo[2.2.1]heptane]	–	–	2.5	–	–	–	–
CCOc1cncc(C2CC3CCN2CC3)c1.Cl.Cl (stereo not shown) [Sample No. 7, 2-(5-ethoxy-3-pyridyl)-1-azabicyclo[2.2.2]octane dihydrochloride]	–	–	1	–	–	–	–
CC(C)Oc1cncc(C2CC3CCN2CC3)c1.Cl.Cl (stereo not shown) [Sample No. 8, 2-(5-isopropoxy-3-pyridyl)-1-azabicyclo[2.2.2]octane dihydrochloride]	many times	many times	0.4	115	31	31	10
